What was measured:
[1] = in vivo hydrolysis of the pro-drug in the rat
[2] = rat tail vein model for phlebitis reaction near the site of injection
melanotic melanoma B16 = experiment: Melanotic Melanoma B16 test; format: in vivo, BDF1 mice
L1210 leukemia cells = experiment: Lymphocytic Leukemia L1210 test; format: in vivo, BDF1 mice
[3] = hydrolysis / stability in water; details: compared with in vivo hydrolysis
[4] = test system: lymphocytic leukemia P388; experiment: Lymphocytic leukemia P388 test; format: in vivo, BDF1 mice
[5] = Dose 1.56 mg/kg intraperitoneally on days 1, 5 and 9
[6] = Dose 6.25 mg/kg intraperitoneally on days 1, 5 and 9
[7] = Dose 25 mg/kg intraperitoneally on days 1, 5 and 9
[8] = Dose 0.78 mg/kg intraperitoneally on days 1, 5 and 9
[9] = Dose 3.12 mg/kg intraperitoneally on days 1, 5 and 9
[10] = Dose 12.5 mg/kg intraperitoneally on days 1, 5 and 9
[11] = Dose 100 mg/kg intraperitoneally on days 1, 5 and 9
[12] = Dose 50 mg/kg intraperitoneally on days 1, 5 and 9
[13] = Dose 200 mg/kg intraperitoneally on days 1, 5 and 9

O=P(O)(O)N1CCN=C1NN=Cc1c2ccccc2c(C=NNC2=NCCN2)c2ccccc12
in vivo hydrolysis of the pro-drug [1]: slowly hydrolyzes further to bisantrene | precipitation in a rat tail-vein model ([2]; rat, in vivo): no precipitation

O=P(O)(O)N1CCN=C1NN=Cc1c2ccccc2c(C=NNC2=NCCN2P(=O)(O)O)c2ccccc12
Median Survival (melanotic melanoma B16; [5]): 29 days | T/C x 100 % (melanotic melanoma B16; [5]): 126% | Median Survival (melanotic melanoma B16; [6]): 35.5 days | T/C x 100 % (melanotic melanoma B16; [6]): 154% | Median Survival (melanotic melanoma B16; [7]): 37.5 days | T/C x 100 % (melanotic melanoma B16; [7]): 163% | Median Survival (L1210 leukemia cells; [8]): 10.7 days | T/C x 100 % (L1210 leukemia cells; [8]): 126% | Median Survival (L1210 leukemia cells; [5]): 11.5 days | T/C x 100 % (L1210 leukemia cells; [5]): 135% | Median Survival (L1210 leukemia cells; [9]): 12.2 days | T/C x 100 % (L1210 leukemia cells; [9]): 144% | Median Survival (L1210 leukemia cells; [6]): 13.2 days | T/C x 100 % (L1210 leukemia cells; [6]): 155% | Median Survival (L1210 leukemia cells; [10]): 13.3 days | T/C x 100 % (L1210 leukemia cells; [10]): 156% | Median Survival (L1210 leukemia cells; [7]): 17 days | T/C x 100 % (L1210 leukemia cells; [7]): 200% | stability in water [3]: much more stable in water | in vivo hydrolysis of the pro-drug [1]: hydrolyzes rapidly to an intermediate form, the monophosphoramidic acid | phlebitis reaction near the site of injection ([2]; 25 mg/kg intravenously, observations at 1, 5 and 9 days following the injection): No evidence of phlebitis

CCOP(=O)(OCC)N1CCN=C1NN=Cc1c2ccccc2c(C=NNC2=NCCN2P(=O)(OCC)OCC)c2ccccc12
Median Survival [4, 11]: 12 days | T/C x 100 % [4, 11]: 120%

O=P(Oc1ccccc1)(Oc1ccccc1)N1CCN=C1NN=Cc1c2ccccc2c(C=NNC2=NCCN2P(=O)(Oc2ccccc2)Oc2ccccc2)c2ccccc12
Median Survival [4, 12]: 13 days | T/C x 100 % [4, 12]: 130% | Median Survival [4, 11]: 15.5 days | T/C x 100 % [4, 11]: 155% | Median Survival [4, 13]: 16 days | T/C x 100 % [4, 13]: 160%

From patent EP0338372A2, “Solubilized pro-drugs” (AMERICAN CYANAMID COMPANY, priority 1988, dated 1989)
